Test results published in PMC6484020, “Discovery of selective activators of PRC2 mutant EED-I363M” (Scientific Reports, 2019).

Amino acid sequences for entries named in this document (tags omitted). Residues count along the entry.
UniProt O75530, whole entry I363M: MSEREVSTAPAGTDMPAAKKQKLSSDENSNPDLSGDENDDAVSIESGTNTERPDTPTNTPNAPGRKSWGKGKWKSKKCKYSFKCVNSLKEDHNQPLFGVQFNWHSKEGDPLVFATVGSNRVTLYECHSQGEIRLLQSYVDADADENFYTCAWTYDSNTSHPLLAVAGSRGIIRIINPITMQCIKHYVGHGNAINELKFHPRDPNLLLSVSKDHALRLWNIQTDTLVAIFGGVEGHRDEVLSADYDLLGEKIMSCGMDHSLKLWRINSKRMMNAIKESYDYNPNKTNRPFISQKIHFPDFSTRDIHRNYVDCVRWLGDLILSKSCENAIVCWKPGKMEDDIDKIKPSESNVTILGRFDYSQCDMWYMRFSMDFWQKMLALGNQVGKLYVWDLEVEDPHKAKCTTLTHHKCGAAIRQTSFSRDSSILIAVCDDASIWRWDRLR
UniProt Q15910, 1-751 isoform 2: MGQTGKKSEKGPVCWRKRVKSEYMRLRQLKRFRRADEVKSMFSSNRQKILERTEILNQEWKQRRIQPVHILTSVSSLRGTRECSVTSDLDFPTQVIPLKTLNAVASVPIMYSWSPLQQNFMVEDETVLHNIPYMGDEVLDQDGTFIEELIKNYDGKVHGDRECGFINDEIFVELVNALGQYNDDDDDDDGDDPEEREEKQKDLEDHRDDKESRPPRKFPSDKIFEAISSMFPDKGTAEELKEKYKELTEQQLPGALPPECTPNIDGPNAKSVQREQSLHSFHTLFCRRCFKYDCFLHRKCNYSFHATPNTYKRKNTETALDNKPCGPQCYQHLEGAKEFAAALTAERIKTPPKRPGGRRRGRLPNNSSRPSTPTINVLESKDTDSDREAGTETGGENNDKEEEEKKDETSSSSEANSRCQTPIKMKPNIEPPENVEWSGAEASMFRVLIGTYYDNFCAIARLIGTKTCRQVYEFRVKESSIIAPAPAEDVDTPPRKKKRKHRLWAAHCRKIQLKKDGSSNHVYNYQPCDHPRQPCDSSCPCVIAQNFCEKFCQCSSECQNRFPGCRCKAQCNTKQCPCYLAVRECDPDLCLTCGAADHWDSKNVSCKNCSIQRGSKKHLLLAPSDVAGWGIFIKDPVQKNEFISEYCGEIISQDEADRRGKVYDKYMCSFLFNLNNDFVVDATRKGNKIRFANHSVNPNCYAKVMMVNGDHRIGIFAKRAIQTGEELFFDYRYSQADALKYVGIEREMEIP
UniProt Q15022, whole entry partner: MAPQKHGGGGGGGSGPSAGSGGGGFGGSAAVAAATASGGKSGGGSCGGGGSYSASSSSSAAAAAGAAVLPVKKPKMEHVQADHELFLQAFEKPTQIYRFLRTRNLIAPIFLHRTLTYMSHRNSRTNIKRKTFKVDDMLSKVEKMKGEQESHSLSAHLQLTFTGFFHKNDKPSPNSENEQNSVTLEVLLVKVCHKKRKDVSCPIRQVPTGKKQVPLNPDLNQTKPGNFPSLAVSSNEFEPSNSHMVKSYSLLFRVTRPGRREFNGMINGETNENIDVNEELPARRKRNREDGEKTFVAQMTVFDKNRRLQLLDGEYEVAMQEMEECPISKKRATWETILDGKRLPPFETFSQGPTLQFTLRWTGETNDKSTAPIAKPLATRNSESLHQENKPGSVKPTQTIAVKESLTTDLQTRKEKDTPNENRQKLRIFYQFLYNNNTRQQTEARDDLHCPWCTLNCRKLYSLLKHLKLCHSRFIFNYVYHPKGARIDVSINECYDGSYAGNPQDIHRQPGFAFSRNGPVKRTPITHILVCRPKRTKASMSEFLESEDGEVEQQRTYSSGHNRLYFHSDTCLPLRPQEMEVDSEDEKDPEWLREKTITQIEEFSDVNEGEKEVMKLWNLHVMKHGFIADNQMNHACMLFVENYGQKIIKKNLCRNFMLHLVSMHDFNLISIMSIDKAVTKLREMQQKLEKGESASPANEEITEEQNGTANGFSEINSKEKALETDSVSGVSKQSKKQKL

Molecular target: PRC2-EED-I363M (Homo sapiens, UniProt O75530+Q15910, I363M)
Test: Fluorescence polarization binding assay
Details: 40 nM labelled ligand; top PRC2-EED-I363M concentration 2 µM
Procedure: The binding experiments were performed in a total volume of 10 μl binding buffer (20 mM Tris pH 8.0 supplemented with 0.01% Triton X-100 and 5 mM DTT) in 384-well black polypropylene PCR plates (Axygen, Cat. PCR-384-BK). The binding of FAM-labelled ligand, 8 (UNC6419) to WT- and EED-I363M mutant trimeric PRC2 complexes was evaluated by monitoring the fluorescence polarization (FP) signal in the presence of 40 nM FL-UNC6419. FP was performed using a Biotek Synergy 4 after 30 minutes incubation at ambient temperature using excitation and emission wavelengths of 485 nm and 528 nm, respectively.
PRC2-WT (µM) PRC2-WT (µM) PRC2-WT (µM) PRC2-W T (µM) PRC2-WT (µM)
PRC2-Mutant (µM) PRC2-Mutant (µM) PRC2-Mutant (µM) PRC2-Mutant (µM) PRC2-Mutant (µM)
Supplementary Figure S8. Evaluating binding of 8 (UNC6419) to WT- and EED-I363M mutant
trimeric PRC2 complexes. Binding of (A) 8, a FAM-labelled ligand, to both WT and mutant
trimeric PRC2 complexes were assessed by (B) monitoring the changes in fluorescence
polarization signal under specified conditions. Increase in fluorescence polarization signal was
observed when increasing concentrations of wild-type, but not mutant, PRC2 (EED/EZH2/SUZ12)
was tested in the presence of 40 nM of 8. All Kd values are presented in the above table. Assays
were performed in triplicate in 20 mM Tris-HCl pH 8.0, 5 mM DTT, 0.01% Triton X-100. Data […]

CC(C)C[C@H](NC(=O)[C@H](Cc1ccccc1)NC(=O)[C@H](CCCC[N+](C)(C)C)NC(=O)[C@H](CCCCN)NC(=O)[C@@H]1CCCN1)C(=O)NCCC(=O)NCCC(=O)N(CC(N)=O)Cc1cn(CCCNC(=O)c2ccc(-c3c4ccc(=O)cc-4oc4cc(O)ccc34)c(C(=O)O)c2)nn1
binding to PRC2-EED-I363M: no binding was detected
